Reference: US9662329B2, “Use of survivin antagonists in polyomavirus-related disease” (University of Pittsburgh—Of the Commonwealth System of …, priority 2012, dated 2017)

System: MCC cell lines
Experimental: Serial drug dilutions from 10^−4 M to 10^−9 M were used on MCC and non-MCC cell lines. Cells were seeded into 384-well plates at 6000 cells in 50 μl of medium per well. After 24 hours, 25 μl of 3× drugs were added at increasing concentration to each well. Cell viability was then measured using Cell Titer Glo (Promega) kit following manufacturer's instructions as described previously. Each drug concentration was tested in triplicate for each cell line and experiments were repeated twice. EC50 doses for the drugs were calculated using a four parameter logistic equation (GraphPad Prism).

SMILES: CC(C)C[C@H](NC(=O)[C@H](Cc1ccccc1)NC(=O)c1cnccn1)B(O)O [Bortezomib]
- selectivity of activity for MCV-positive cells: not selective for MCV-positive cells
